{
  "source": "PubChem BioAssay AID487",
  "about": "(Columbia University Molecular Screening Center, 2006)",
  "note": "The list shows a part of the results, in another mix than the full data. Calls of active or inactive are those of the source.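 How the source made its calls: active means visually confirmed hit in the image check and inhibition above 20%; inconclusive means visually confirmed hit but inhibition not above 20%; inactive means no visual hit in the image check.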",
  "data": [
    {"assay": "inhibitors of E-selectin induction by TNFa, primary screen, imaging, HUVEC, immunofluorescence, MLSMR starter and 10KST1 sets (AID 487);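 further: signal is fraction of cell area covered by stained E-selectin grains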", "settings": "HUVEC TNFalpha-induced E-selectin immunofluorescence imaging; at 2 µM; hits give high values", "values": [
      {"smiles": "Fc1ccccc1NC1CCN(Cc2ccccc2)CC1", "inhibition": "inactive: -172%"}
    ]}
  ]
}
